# Measurements: US20260258420A1 (published 2026)
# Tests used:
# [1] = system: 17 HPV-negative HNSCC and cervical squamous cancer cell lines; experiment: High-throughput drug screen (HTDS), cell death by AOC_LD, HPV-negative cell lines; type: cell-based; conditions: resistant = AOC_LD 0
# [2] = system: 16 HPV-positive HNSCC and cervical squamous cancer cell lines; experiment: High-throughput drug screen (HTDS), cell death by AOC_LD, HPV-positive cell lines; type: cell-based; conditions: resistant = AOC_LD 0
compound,measurement,setting,value
COc1cc2c(c(OC)c1OC)-c1ccc(OC)c(=O)cc1[C@@H](NC(C)=O)CC2 [COLCHICINE],HPV negative Resistant (number of cell lines),[1],7
same,HPV positive Resistant (number of cell lines),[2],1
